Assay results published in publication PMC2917805 (Journal of medicinal chemistry, 2010).

Conditions: NMR solvent D2O

Resveratrol Tetrabutylammonium 4′-Sulfate [compound 6]
solubility in D2O: Not soluble in D2O.
